# From patent US6147100A, “Pyrrolidine derivatives having phospholipase A2 inhibitory activity” (Shionogi & Co., Ltd., priority 1997, dated 2000)
# The chains behind the UniProt entries cited, without tags or fusion partners.
# UniProt P47712, whole entry: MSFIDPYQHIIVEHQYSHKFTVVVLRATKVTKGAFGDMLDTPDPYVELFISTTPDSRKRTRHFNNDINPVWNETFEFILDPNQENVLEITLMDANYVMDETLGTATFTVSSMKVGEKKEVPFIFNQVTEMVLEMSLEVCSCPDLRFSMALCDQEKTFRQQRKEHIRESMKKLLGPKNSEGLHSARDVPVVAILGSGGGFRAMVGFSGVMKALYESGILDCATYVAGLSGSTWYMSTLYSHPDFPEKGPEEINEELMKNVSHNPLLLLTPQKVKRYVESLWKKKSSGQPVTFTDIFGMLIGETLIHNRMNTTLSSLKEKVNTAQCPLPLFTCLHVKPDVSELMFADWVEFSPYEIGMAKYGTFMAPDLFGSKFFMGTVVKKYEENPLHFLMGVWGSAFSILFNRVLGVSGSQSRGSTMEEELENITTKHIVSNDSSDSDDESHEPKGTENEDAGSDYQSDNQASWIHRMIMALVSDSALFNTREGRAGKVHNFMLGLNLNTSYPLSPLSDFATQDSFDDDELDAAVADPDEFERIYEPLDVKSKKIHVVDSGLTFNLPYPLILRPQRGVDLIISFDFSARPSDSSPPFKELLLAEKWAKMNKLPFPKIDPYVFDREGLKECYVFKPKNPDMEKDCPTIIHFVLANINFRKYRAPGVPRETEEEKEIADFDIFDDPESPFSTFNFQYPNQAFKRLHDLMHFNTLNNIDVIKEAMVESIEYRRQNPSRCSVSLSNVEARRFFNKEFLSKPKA
# Assays:
# cPLA2 = cPLA2 (Homo sapiens, UniProt P47712); test: cPLA2 Inhibitory Activity; assay type: biochemical; conditions: read-out: IC50 (cPLA2 inhibitory activity); 1-palmitoyl-2-[14C]-arachidonoyl-sn-glycero-3-phosphocholine 2.5 μM, sn-1,2-dioleoylglycerol 1.25 μM; pH 7.5, 15 min at 37° C.
# Protocol: Test Example 1 cPLA2 Inhibitory Activity The compounds of the present invention were tested for the cPLA2 inhibitory activity according to the method disclosed in […]. Roberts, […], and J. E. Putnam, J. Biol. Chem., 1991, 266, 5268-5272 as outlined below. […] The reaction mixture includes 50 mM HEPES buffer (pH 7.5), 1 mM calcium chloride, 150 mM sodium chloride, 0.1 mg/ml bovine serum albumin, and 1.7 mM dithiothreitol. To the reaction mixture was added the compound of the present invention and the substrate solution. The reaction was allowed to start by adding an enzyme and continued for 15 min at 37° C. The fatty acids released by the reaction were extracted by the method described in V. P. Dole, and H. Meinertz, J. Biol. Chem., 1960, 235, 2595-2599 and its radiation activity was measured on a liquid scintillation counter. Control was obtained by conducting the experiment in the same manner except that a compound of the present invention was not added.
# [1] = test system: production of prostaglandin E2 by human fibroblasts; test: Inhibition of Production of Prostaglandin E2 in Human Fibroblasts (IL-1 stimulation); conditions: read-out: IC50 (inhibition of production of prostaglandin E2); human fibroblasts under stimulation with IL-1
# Protocol: Test Example 2 Inhibition of Production of Prostaglandin E2 in Human Fibroblasts.
# In order to examine the availability of the composition for inhibiting cytosolic phospholipase A2 (cPLA2) on the cells, the compounds of the present invention were tested for the effect on the production of prostaglandin E2 by human fibroblasts under the stimulation with IL-1 according to the method of J. M. Dayer et al (CACHECTIN/TUMOR NECROSIS FACTOR STIMULATES COLLAGENASE AND PROSTAGLANDIN E2 PRODUCTION BY HUMAN SYNOVIAL CELLS AND DERMAL FIBROBLASTS; J. M. Dayer, B, Beutler and A, Cerami, J. EXP. Med., 1985, 162, 2163-2168.).
smiles,measurement,setting,value
CCOc1cccc(-c2ccccc2C(C)C)c1O[C@@H]1C[C@@H](CNC(=O)c2ccc(/C=C3\SC(=O)NC3=O)cc2)N(C(=O)c2ccccc2C(=O)c2ccc(F)cc2)C1,IC50,cPLA2,26 nM
same,IC50,[1],490 nM
CCOc1cccc(-c2ccccc2)c1O[C@@H]1C[C@@H](CNC(=O)c2ccc(/C=C3\SC(=O)NC3=O)cc2)N(C(=O)c2ccccc2C(=O)c2ccc(F)cc2)C1,IC50,cPLA2,34 nM
same,IC50,[1],440 nM
CN1CCN(c2ccccc2O[C@@H]2C[C@@H](CNC(=O)c3ccc(/C=C4\SC(=O)NC4=O)cc3)N(C(=O)c3ccccc3C(=O)c3ccc(F)cc3)C2)CC1,IC50,cPLA2,4700 nM
O=C(/C=C/c1ccc(/C=C2\SC(=O)NC2=O)cc1)NC[C@@H]1C[C@@H](Oc2ccccc2-c2ccccc2)CN1C(=O)c1ccccc1C(=O)c1ccc(F)cc1,IC50,cPLA2,46 nM
same,IC50,[1],840 nM
CC(C)Oc1cccc(-c2ccccc2)c1O[C@@H]1C[C@@H](CNC(=O)c2ccc(/C=C3\SC(=O)NC3=O)cc2)N(C(=O)c2ccccc2C(=O)c2ccc(F)cc2)C1,IC50,cPLA2,46 nM
